Like-named read-outs stand apart in the source and are kept apart here.
Target: ULK1 (Homo sapiens, UniProt O75385)
Test: ULK1 inhibition assay (Table 1)
Assay type: biochemical
[1] = ULK1 inhibition assay, * = tested as a mixture of regioisomers

Chains of the proteins cited; added tags and fusions are not shown. Lines headed by an entry give the natural chain unless they say otherwise; changes in a name come on top.
UniProt O75385: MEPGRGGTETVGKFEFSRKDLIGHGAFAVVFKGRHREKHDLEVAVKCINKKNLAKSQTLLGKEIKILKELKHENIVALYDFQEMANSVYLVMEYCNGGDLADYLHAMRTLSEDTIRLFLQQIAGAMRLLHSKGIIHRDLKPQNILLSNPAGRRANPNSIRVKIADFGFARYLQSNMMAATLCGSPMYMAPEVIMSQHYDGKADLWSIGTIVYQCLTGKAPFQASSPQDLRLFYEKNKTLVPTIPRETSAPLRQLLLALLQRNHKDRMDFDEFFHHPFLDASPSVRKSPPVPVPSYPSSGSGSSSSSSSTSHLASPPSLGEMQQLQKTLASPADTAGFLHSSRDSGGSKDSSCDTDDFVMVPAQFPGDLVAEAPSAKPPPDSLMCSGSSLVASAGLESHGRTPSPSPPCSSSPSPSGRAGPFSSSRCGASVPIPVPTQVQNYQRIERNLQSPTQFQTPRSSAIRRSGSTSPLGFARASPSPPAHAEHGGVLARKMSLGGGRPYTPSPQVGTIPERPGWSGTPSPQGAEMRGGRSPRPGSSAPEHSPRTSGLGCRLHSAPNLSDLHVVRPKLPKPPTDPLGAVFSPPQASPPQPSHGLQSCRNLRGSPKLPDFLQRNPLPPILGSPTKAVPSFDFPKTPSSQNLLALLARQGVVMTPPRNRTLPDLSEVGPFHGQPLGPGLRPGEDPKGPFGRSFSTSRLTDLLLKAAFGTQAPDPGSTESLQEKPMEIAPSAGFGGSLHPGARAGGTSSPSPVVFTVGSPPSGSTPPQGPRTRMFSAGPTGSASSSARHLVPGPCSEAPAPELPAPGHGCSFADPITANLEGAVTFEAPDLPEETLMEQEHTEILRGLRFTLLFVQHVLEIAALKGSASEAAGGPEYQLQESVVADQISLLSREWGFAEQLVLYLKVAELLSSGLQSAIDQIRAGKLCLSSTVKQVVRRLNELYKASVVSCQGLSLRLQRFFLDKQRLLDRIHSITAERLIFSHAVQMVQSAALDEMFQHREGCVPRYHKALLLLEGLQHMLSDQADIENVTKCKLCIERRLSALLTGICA

SMILES | IC50 [1] | IC50
FC(F)(F)c1cnc(Nc2ccc3[nH]ncc3c2)nc1NC1CC1 [Example 195, N4-cyclopropyl-N2-(1H-indazol-5-yl)-5-(trifluoromethyl) pyrimidine-2,4-diamine] | < 200 nM | –
FC(F)(F)c1cnc(Nc2ccc3nc[nH]c3c2)nc1NC1CC1 [Example 211, N2-(1H-benzo[d]imidazol-6-yl)-N4-cyclopropyl-5-(trifluoromethyl)pyrimidine-2,4-diamine] | < 200 nM | –
O=C1CCc2cc(Nc3ncc(C(F)(F)F)c(NCC(F)(F)F)n3)ccc2N1 [Example 222, 6-((4-((2,2,2-trifluoroethyl)amino)-5-(trifluoromethyl)pyrimidin-2-yl)amino)-3,4-dihydroquinolin-2(1H)-one] | < 200 nM | –
CS(=O)(=O)Nc1nc(Nc2ccc3c(c2)CCC(=O)N3)ncc1C(F)(F)F [Example 226, N-(2-((2-oxo-1,2,3,4-tetrahydroquinolin-6-yl)amino)-5-(trifluoromethyl)pyrimidin-4-yl)methanesulfonamide] | > 2000 nM | –
Nc1n[nH]c(Nc2nc(Nc3ccc4c(c3)CCC(=O)N4)ncc2C(F)(F)F)n1 [Example 243, 6-((4-((3-amino-1H-1,2,4-triazol-5-yl)amino)-5-(trifluoromethyl)pyrimidin-2-yl)amino)-3,4-dihydroquinolin-2(1H)-one] | – | 200 to 2000 nM
Oc1ccccc1Nc1ncc(C(F)(F)F)c(NC2CC2)n1 [Example 255, 2-((4-(cyclopropylamino)-5-(trifluoromethyl)pyrimidin-2-yl)amino)phenol] | < 200 nM | –
FC(F)(F)c1cnc(Nc2ccc3nccnc3c2)nc1NC1CC1 [Example 305, N4-cyclopropyl-N2-(quinoxalin-6-yl)-5-(trifluoromethyl) pyrimidine-2,4-diamine] | < 200 nM | –

Source: US10774092B2 (SALK INSTITUTE FOR BIOLOGICAL STUDIES, priority 2014, dated 2020)
